Values of other authors as cited in publication PMC6719874 (PLoS ONE, 2019).

Amino acid sequences for entries named in this document (tags omitted).
UniProt Q12809, whole entry Y652A: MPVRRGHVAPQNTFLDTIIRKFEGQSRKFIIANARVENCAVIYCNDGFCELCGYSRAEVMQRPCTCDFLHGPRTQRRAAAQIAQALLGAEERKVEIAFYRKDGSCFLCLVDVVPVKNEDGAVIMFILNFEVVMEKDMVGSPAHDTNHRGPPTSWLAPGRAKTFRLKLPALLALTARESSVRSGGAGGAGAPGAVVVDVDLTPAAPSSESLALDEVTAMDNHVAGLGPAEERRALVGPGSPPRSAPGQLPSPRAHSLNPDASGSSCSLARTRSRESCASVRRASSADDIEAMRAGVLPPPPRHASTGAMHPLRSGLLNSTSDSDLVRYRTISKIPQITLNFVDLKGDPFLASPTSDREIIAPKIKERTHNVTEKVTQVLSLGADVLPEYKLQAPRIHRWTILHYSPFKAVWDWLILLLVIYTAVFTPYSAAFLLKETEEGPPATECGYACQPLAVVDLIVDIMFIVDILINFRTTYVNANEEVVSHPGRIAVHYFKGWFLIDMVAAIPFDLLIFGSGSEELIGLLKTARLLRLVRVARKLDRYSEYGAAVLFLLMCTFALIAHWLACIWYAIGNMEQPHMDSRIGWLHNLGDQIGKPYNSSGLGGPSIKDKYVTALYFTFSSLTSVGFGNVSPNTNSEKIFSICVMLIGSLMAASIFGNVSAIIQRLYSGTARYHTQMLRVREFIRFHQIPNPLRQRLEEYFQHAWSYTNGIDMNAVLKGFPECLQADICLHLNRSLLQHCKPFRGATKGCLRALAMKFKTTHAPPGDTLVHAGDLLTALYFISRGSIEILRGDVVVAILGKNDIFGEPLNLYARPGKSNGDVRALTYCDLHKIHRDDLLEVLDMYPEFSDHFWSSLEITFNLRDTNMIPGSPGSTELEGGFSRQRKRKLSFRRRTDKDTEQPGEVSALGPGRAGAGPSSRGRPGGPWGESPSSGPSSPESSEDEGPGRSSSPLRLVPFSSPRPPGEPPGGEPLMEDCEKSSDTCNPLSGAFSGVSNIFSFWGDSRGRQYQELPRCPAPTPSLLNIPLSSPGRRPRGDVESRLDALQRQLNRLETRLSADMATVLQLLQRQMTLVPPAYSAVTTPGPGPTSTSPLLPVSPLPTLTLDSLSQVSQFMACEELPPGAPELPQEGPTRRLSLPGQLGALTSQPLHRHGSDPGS

Target: T1, Y652A hERG (Homo sapiens, UniProt Q12809, Y652A)
T1 construct: host or cells: Xenopus laevis oocytes injected with cRNA
Settings: for fold increased IC50 in presence of Y652A mutation: range given for the group of drugs ref 58

For `CN(CCOc1ccc(NS(C)(=O)=O)cc1)CCc1ccc(NS(C)(=O)=O)cc1` [dofetilide], the “fold increased IC50 in presence of Y652A mutation” value (shortened to “fold increased IC50 in presence”) is listed as 40–650 fold.
In the case of `CS(=O)(=O)Nc1ccc2c(c1)[C@H](O)CC1(CCN([C@@H]3CCc4cc(C#N)ccc4C3)CC1)O2` [MK-499], the “fold increased IC50 in presence” value is listed as 40–650 fold.
For `CC(C)COCC(CN(Cc1ccccc1)c1ccccc1)N1CCCC1` (stereo not shown) [bepridil], the “change of IC50 in the Y652A mutant” value is given as “only a slight increase in IC50”.
In the case of `COc1cc(N)c(Cl)cc1C(=O)NC1CCN(CCCOc2ccc(F)cc2)CC1OC` (stereo not shown) [cisapride], the “fold increased IC50 in presence” value is given as 40–650 fold.
